Target: human MDM2 (GST-hMDM2 1-188), interaction with biotinylated-p53 (1-83) (Homo sapiens, UniProt Q00987)
Experiment: improved HTRF assay (HTRF2 assay), inhibition of HDM2-p53 interaction
Settings: read-out: HTRF2 IC50; 0.2 nM GST-hMDM2, 0.5 nM biotinylated-p53, 100 mM KF

Sequences of proteins named here, by UniProt entry; tags and fusion partners are left off. Residues count along the entry.
UniProt Q00987, 1-188 limits assumed: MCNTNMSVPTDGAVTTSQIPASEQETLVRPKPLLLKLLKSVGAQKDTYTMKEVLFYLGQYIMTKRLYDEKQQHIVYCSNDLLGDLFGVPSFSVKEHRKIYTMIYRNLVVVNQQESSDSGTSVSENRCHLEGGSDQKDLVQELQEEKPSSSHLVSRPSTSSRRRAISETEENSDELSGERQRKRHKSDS

Structure (SMILES): CC(C)S(=O)(=O)C(C)[C@H](C1CC1)N1C(=O)C(CC(=O)O)O[C@H](c2cccc(Cl)c2)[C@H]1c1ccc(Cl)cc1 (single isomer, unassigned)
- IC50: 3 nM
